Source: patent US20060128645A1, “Inhibition of proliferation and infiltration of brain tumor cells caused by expression of ampa-type glutamate receptor subunit” (priority 2002, published 2006)

Sequences of proteins named here, by UniProt entry; tags and fusion partners are left off. Residues count along the entry.
UniProt P42261, 19-906: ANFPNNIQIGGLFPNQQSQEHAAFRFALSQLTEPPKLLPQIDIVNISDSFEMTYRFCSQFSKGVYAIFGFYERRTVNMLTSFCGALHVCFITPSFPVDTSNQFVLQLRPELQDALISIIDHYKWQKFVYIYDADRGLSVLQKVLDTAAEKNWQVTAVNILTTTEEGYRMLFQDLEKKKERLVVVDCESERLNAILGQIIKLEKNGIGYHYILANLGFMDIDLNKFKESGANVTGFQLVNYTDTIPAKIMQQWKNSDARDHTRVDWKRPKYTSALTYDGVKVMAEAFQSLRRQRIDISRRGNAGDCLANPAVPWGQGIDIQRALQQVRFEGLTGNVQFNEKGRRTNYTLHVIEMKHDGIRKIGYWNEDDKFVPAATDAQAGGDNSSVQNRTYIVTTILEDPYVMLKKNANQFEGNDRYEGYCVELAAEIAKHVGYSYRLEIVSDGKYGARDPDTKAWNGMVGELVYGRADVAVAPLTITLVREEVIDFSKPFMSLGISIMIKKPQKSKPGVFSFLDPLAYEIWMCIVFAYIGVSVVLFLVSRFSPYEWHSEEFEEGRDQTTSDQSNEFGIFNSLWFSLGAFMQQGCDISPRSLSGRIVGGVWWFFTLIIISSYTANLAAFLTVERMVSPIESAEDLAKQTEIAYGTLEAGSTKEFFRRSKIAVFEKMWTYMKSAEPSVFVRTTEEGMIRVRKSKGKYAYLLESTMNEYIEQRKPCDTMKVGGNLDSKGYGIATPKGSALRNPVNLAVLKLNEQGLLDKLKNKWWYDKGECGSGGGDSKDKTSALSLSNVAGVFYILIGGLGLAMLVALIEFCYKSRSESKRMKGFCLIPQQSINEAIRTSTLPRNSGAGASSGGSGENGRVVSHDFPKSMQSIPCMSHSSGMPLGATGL

Target: T1, Ca^2+-permeable AMPARs in glioblastoma cells in primary culture (Homo sapiens, UniProt P42261)
T1 construct: To examine functional expression of Ca^2+-permeable AMPARs in glioblastoma cells in primary culture; endogenous in cells; host or cells: primary (explant) cultures of glioblastoma multiforme surgical samples
Assay: AMPA-induced [Ca2+]i changes (fura-2 AM) in primary cultured glioblastoma cells
Format: cell-based
Description: Cells were loaded with fura 2-AM (Dojin) at room temperature for 40 min. Fluorescence images were obtained at an excitation wavelength of 340 and 380 nm using the Argus/HiSCA system (Hamamatsu Photonics). The 340/380 nm fluorescence ratio was converted to [Ca^2+]i as described previously (Cell, 88, 49-55, 1997).

Question: How did the “cells in which the increase in [Ca^2+]i was detected” value (200 μM AMPA + 100 μM CTZ, 16 culture dishes) turn out when `Cc1onc(O)c1CC(N)C(=O)O` (stereo not drawn) [AMPA, α-amino-3-hydroxy-5-methyl-4-isoxazole propionic acid] was run?
Answer: The value was 65±15%.

Question: What about the “[Ca^2+]i during application of AMPA together with CTZ” value (200 μM AMPA + 100 μM cyclothiazide, primary culture, n=150) of the same molecule?
Answer: Its value is 285 ± 120 nM.
